For this experiment, the target named is thrombin (Homo sapiens (Human), UniProt P00734). The experiment in a line: Thrombin enzymatic assay. The note with it: read-out: Thrombin IC50. It counts as biochemical.

pIC50: −log10 of the molar value. A value given as a limit tells only on which side of the number the result lay.

By pIC50 is commonly meant the negative decadic logarithm of the IC50, by convention in mol/L.

As for `O=C(CN1C(=O)[C@@H](NC(=O)c2cc3ccccc3cn2)COc2ccccc21)N[C@@H](C[C@@H]1CCNC1=O)C(=O)COC(=O)c1c(Cl)cccc1Cl`, the pIC50 was less than 4.49.

For the origin of these results see patent US20250092029A1 (THE WISTAR INSTITUTE OF ANATOMY AND BIOLOGY, priority 2022, published 2025).
